The experiment has as its target Rat recombinant PDE10A (rPDE10A2) (Rattus norvegicus, UniProt Q9QYJ6). Put plainly: In vitro assay PDE10A (SPA, 3H-cAMP). It is filed as biochemical. To be noted: -log IC50 expressed in mol/L; rPDE10A2, 60 nM cAMP.

The chains behind the UniProt entries cited, without tags or fusion partners.
UniProt Q9QYJ6, whole entry: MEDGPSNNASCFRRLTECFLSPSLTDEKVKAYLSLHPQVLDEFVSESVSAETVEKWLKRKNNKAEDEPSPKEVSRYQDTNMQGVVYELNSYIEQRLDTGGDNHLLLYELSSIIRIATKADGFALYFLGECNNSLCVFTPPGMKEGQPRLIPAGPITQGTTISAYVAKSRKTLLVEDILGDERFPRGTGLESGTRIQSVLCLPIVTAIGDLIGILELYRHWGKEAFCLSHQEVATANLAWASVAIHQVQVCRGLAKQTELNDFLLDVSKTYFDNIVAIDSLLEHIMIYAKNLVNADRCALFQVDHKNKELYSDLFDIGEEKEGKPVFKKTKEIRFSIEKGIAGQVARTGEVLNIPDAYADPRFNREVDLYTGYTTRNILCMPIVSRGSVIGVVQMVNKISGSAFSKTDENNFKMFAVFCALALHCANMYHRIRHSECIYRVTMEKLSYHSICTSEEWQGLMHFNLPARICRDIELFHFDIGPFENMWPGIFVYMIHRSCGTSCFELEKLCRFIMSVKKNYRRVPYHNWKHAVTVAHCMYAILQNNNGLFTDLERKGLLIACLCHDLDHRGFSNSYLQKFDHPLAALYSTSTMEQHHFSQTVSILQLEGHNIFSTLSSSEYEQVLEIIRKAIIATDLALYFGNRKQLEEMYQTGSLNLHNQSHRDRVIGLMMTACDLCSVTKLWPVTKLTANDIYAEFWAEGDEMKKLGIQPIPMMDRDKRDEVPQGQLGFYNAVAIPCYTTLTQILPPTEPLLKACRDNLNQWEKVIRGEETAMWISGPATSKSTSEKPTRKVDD

The structures appear in SMILES notation.

In the case of `Cc1nc2ccc(C(=O)NCc3ccccc3)cc2n2c(-c3ccccc3)nnc12` [Compound B-9, N-Benzyl-4-methyl-1-phenyl[1,2,4]triazolo[4,3-a]quinoxaline-8-carboxamide], the “PIC50 PDE10” value was 5.9.

The record behind these values is patent publication US10604523B2, “1-aryl-4-methyl-[1,2,4]triazolo[4,3-a]quinoxaline derivatives” (Janssen Pharmaceutica NV, priority 2011, dated 2020).
